# Values quoted from earlier work in patent publication US12246067B2, “Neoantigens and uses thereof” (priority 2018, dated 2025).
# Test system: humans
# Conditions: more than 25 clinical trials; cited from earlier work
substance,measurement,value
poly-ICLC,Toxicity profile,relatively benign toxicity profile
